{
  "source": "patent US7256200B2",
  "about": "“Method and composition for potentiating an oplate analgesic” (The Board of Trustees of the University of Illinois, a body …, priority 2003, dated 2007)",
  "system": "opioid receptors",
  "conditions": "morphine 10 μM; 10 μM forskolin, 250 μM 3-isobutyl-1-methylxanthine, 37° C., 15 minutes; p<0.001; FIG. 2",
  "data": [
    {"smiles": "CN1CC[C@]23c4c5ccc(O)c4O[C@H]2[C@@H](O)C=C[C@H]3[C@H]1C5", "note": "[morphine]", "values": [
      {"measurement": "inhibition of cAMP accumulation", "result": 63, "unit": "%"}
    ]}
  ]
}
